Screens deposited in PubChem by National Center for Advancing Translational Sciences (NCATS).
An excerpt weighted towards active compounds, which were near 1.7% of everything screened.
Pin1 inhibitor – inhibitors of human Pin1 | Q13526 | Pin1 FP peptide displacement, HiFluor488, 10 min | Potency, µM (top dose mostly 115 µM), for inactives: at the highest dose activity, negative = inhibition, most hits filed as inhibitors | actives 0.009% (n = 390,000); active = well fitted inhibition curve with a large enough effect in the polarisation, with a control signal flat, not every such curve was filed as active; inconclusive = small, poorly fitted or top-dose-only effect, or effect the other way, or a change in a side signal; inactive = no such curve, though single readings can be large or run the other way; the % refers to the polarisation; also: potency is read from the fitted curve at half-maximal effect; % is scaled to controls: 0 for no effect and ±100 for the full control effect
GLP-1R agonist – agonists of human GLP-1 receptor | P43220 | HEK293 GLP-1R CRE-luciferase, luminescence, 4-6 h; cells express a hypersensitive GLP-1R form | Potency, µM (highest dose often 45.6 µM), for the others: top-dose activation, most hits filed as activators | actives 0.007% (n = 380,000) | AID 624172; also: potency is read from the fitted curve at half-maximal effect; % of control where 0% means no effect
PTHR1 ag – activates the human parathyroid hormone receptor PTHR1 | AID 743266 | Q03431 | actives 0.075% (n = 410,000) | Potency, µM (highest dose often 115 µM), for the others: top-dose activation, usual class: activators | HEK293 GP2 PTHR1 cells, GloSensor cAMP luminescence, 1 h; also: potency is read from the fitted curve at half-maximal effect; nearly all actives have a fitted effect of over 55% in size
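HEK-293-derived GP2 cells expressing PTHR1 and a GloSensor cAMP reporter, 3,000/well, plated overnight, given luciferin plus IBMX (each 0.5 mM as added) for 1 h at 37 °C, then compound for 1 h at 37 °C. Luminescence was read after 15 min at room temperature.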
GLP-1R inv ag – inverse agonists of human GLP-1 receptor. HEK293 GLP-1R CRE-luciferase, luminescence, 24 h; GLP-1R form is constitutively active. Potency, µM (top dose mostly 38.3 µM), for the others: at the top dose activity change, negative = inhibition, hits mostly inhibitors. actives 1.6% (n = 410,000); also: potency is read from the fitted curve at half-maximal effect; % is scaled to controls: 0 for no effect and ±100 for the full control effect; nearly all actives have a fitted effect of over 55% in size
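Inverse agonists were sought by their lowering of basal cAMP reporter luciferase output in HEK293 cells stably carrying constitutively active human GLP-1R, after 24 h compound treatment.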
GLP1R cytotox – cytotoxicity counter-screen for GLP-1 receptor inverse agonists | HEK293 cAMP-luciferase reporter cells, luminescence, 24 h | Potency, µM (series often up to 38.3 µM), for the others: top-dose activity change, negative = inhibition, hits mostly inhibitors | actives 0.13% (n = 410,000) | AID 624418;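 also: loss of luciferase light is scored as toxicity; potency is read from the fitted curve at half-maximal effect; % is scaled to controls: 0 for no effect and ±100 for the full control effect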
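To flag toxic compounds, the library was rerun on cells for 24 hr at 37 deg C and 5% CO2. Viability-linked luminescence was captured 12 min after adding luciferase detection reagent.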
miR-21 reporter – raises the signal of a miR-21 reporter | HeLa miR-21 FLuc reporter, luciferase, 48 h | Potency, µM (highest dose often 38.3 µM), for inactives: at the highest dose reporter change, positive = more light | 340,000 tested, under 10 active | AID 2288; active = well fitted rising curve with a large enough effect; inconclusive = small, poorly fitted or top-dose-only effect; inactive = no such curve, though single readings can be large or run the other way;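 also: % of control where 0% means no effect; miR-21 action dims this reporter so a rising signal means less miR-21 action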
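HeLa miR-21-FLuc reporter line, endogenous miR-21; 2000 cells/well in DMEM/10% FBS; compound titration up to ~40uM final, 48 h, 37 degree Celsius; luciferase detection reagent, 15 min lysis, CCD luminescence.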
An asterisk follows results filed as active; i = inactive; ? = inconclusive; . = no result given; [ ] = another dose, or the depositor's remark. Unless noted, calls follow the shape of the dose curve; as a rule, active = well fitted curve in the direction sought with a large enough effect; inconclusive = small, poorly fitted or top-dose-only effect, or another doubt; inactive = no such curve, though single readings can be large; an effect the other way counts as inactive or inconclusive.

entry | SMILES | Pin1 inhibitor | GLP-1R agonist | PTHR1 ag | GLP-1R inv ag | GLP1R cytotox | miR-21 reporter
1 | N#CC(C#N)=NNc1ccc(S(=O)(=O)N2CCCCC2)cc1 | 7% | -51% | -22% | 1.3µM* | ? | 1%
2 | N#C/C(=N\Nc1ccc(S(=O)(=O)N2CCOCC2)cc1)C(N)=S | 6% | -1% | -25% | ? | ? | 13%
3 | CCC(C)(c1nnnn1-c1c(C)cccc1C)N(N=O)c1ccccc1Cl (stereo not given) | 15% | -3% | -22% | 7.9µM* | -6% | 13%
4 | NC(=O)CC(NC(=O)c1ccc(Br)cc1)c1ccc(N2CCCCCC2)c([N+](=O)[O-])c1 (stereo not given) | -1% | 17% | -20% | 11µM* | -27% | 18%
5 | CCC(=O)NC(c1ccco1)c1cc([N+](=O)[O-])c2cccnc2c1O (stereo not given) | -22% | . | . | . | . | .
6 | COc1ccc(-c2cc(NC=O)c3ncc(-c4ccc(OC)c(OC)c4)n3c2)c(OC)c1 | . | 2.5µM* | 3% | -53% | ? | .
7 | COc1cccc(-c2cc(NC=O)c3ncc(-c4ccc(OC)c(OC)c4)n3c2)c1 | . | ? | i | ? | -26% | .
8 | COc1cccc(-c2cnc3c(NC=O)cc(-c4ccc(OC)cc4OC)cn23)c1 | . | ? | -20% | 0.79µM* | -37% | .
9 | CC(=O)OCC(=O)[C@@]1(O)CCC2C3CCC4=CC(=O)C=CC4(C)C3C(O)C[C@]21C (stereo not given in full) | . | -5% | . | . | . | .
10 | Oc1ccc(-c2nc3ccccn3c2Nc2ccc3c(c2)OCCO3)cc1 | -1% | . | -25% | -9% | -4% | -31%

Compounds shown so far that contain a nitro group on carbon, in the order listed:
entry | SMILES | Pin1 inhibitor | GLP-1R agonist | PTHR1 ag | GLP-1R inv ag | GLP1R cytotox | miR-21 reporter
4 | NC(=O)CC(NC(=O)c1ccc(Br)cc1)c1ccc(N2CCCCCC2)c([N+](=O)[O-])c1 (stereo not given) | -1% | 17% | -20% | 11µM* | -27% | 18%
5 | CCC(=O)NC(c1ccco1)c1cc([N+](=O)[O-])c2cccnc2c1O (stereo not given) | -22% | . | . | . | . | .

Next entries follow.
entry | SMILES | Pin1 inhibitor | GLP-1R agonist | PTHR1 ag | GLP-1R inv ag | GLP1R cytotox | miR-21 reporter
11 | Clc1cccc(-c2nc3ccccn3c2Nc2ccc3c(c2)OCCO3)c1 | ? | . | -25% | 6.3µM* | -6% | -11%
12 | CCOC(=O)C1=C(CNCc2ccc(C)cc2)NC(=O)NC1c1ccc(OC)cc1 (stereo not given) | -1% | 10% | -12% | 13µM* | ? | 26%
13 | Cc1ccc(C(=O)Nc2ccc3c(c2)N(C)C(=O)c2ccccc2S3)cc1 | -1% | . | -63% | ? | -29% | ?
14 | CN1CCN(CC2(O)CCN(S(=O)(=O)c3ccc(Cl)cc3)CC2)CC1 | -12% | 4% | i | 0.89µM* | 15% | -1%
15 | Cc1ccc(SCC2(O)CCN(S(=O)(=O)c3ccc(Cl)cc3)CC2)cc1 | 5% | 5% | -37% | 0% | 2% | 8%
16 | COc1ccc(S(=O)(=O)N2CCC(O)(c3ccc(Cl)cc3)CC2)cc1 | 0% | -6% | -17%[57.5 µM] | ? | -17% | 20%
17 | CC(C)(C)c1ccc(S(=O)(=O)N2CCC(O)(c3ccc(Cl)cc3)CC2)cc1 | 0% | 2% | -41% | 7.1µM* | -13% | 14%
18 | O=C1NCCN1CCN1CCC(c2cn(-c3ccc(F)cc3)c3ccc(Cl)cc23)CC1 | . | -7% | . | . | . | .
19 | CC1=C(c2ccc(C)c(C)c2)S(=O)(=O)N=C1N1CCC(C(=O)NCCc2ccc(Cl)cc2)CC1 | 27% | . | -43% | ? | -16% | ?
20 | O=c1[nH]c2c(s1)C(c1ccccc1)C1C3CCC(C3)C1S2 (stereo not given) | 0% | 0% | -23%[57.5 µM] | 6.3µM* | 41% | 4%

Next section.
entry | SMILES | Pin1 inhibitor | GLP-1R agonist | PTHR1 ag | GLP-1R inv ag | GLP1R cytotox | miR-21 reporter
21 | CCOC(=O)/C=C/c1cc(F)c(S(=O)(=O)N2CCN(S(=O)(=O)c3ccc4c(c3)OCCO4)CC2)cc1F | 3% | . | . | . | . | .
22 | Cc1cc2c(s1)c1cnn(Cc3cccc(Cn4ncc5c6sc(C)cc6n(C)c5c4=O)c3F)c(=O)c1n2C | 28% | . | . | . | . | .
23 | CN(Cc1ccccc1)C(=O)c1ccc2c(c1)OCO2 | 3% | 12% | -30%[57.5 µM] | 5% | 6% | -20%
24 | CCCCN(C(=O)c1ccc2c(c1)OCO2)c1ccccc1 | -6% | 12% | 0% | 10µM* | 5% | 8%
25 | CC(NC(=O)c1ccco1)c1nc(-c2ccc(C(C)(C)C)cc2)no1 (stereo not given) | -7% | 19% | -10% | 10µM* | -21% | -14%
26 | Cc1ccc(-c2noc(C(C)NC(=O)c3ccco3)n2)cc1 (stereo not given) | -5% | . | i | -25% | -5% | 0%
27 | CNC(=S)N(CCc1c(C)[nH]c2ccc(C)cc12)Cc1ccco1 | -1% | 12% | i | 10µM* | 2% | 5%
28 | Cc1cccc(C(=O)OCC(=O)c2c(N)n(CC(C)C)c(=O)n(C)c2=O)c1O | -3% | -2% | -33% | 10µM* | -14% | .
29 | CC(C)Cn1c(N)c(C(=O)COC(=O)c2ccc(Br)cc2)c(=O)n(C)c1=O | 27% | -1% | -92% | 10µM* | -8% | .
30 | CC(C)Cn1c(N)c(C(=O)COC(=O)CC23CC4CC(CC(C4)C2)C3)c(=O)n(C)c1=O | 31% | -22% | -20%[57.5 µM] | 2.8µM* | -18% | ?

In a second layout: three of the compounds above
The line under a structure holds: Pin1 inhibitor | GLP-1R agonist | PTHR1 ag | GLP-1R inv ag | GLP1R cytotox | miR-21 reporter
24. CCCCN(C(=O)c1ccc2c(c1)OCO2)c1ccccc1
→ -6% | 12% | 0% | 10µM* | 5% | 8%
25. CC(NC(=O)c1ccco1)c1nc(-c2ccc(C(C)(C)C)cc2)no1 (stereo not given)
→ -7% | 19% | -10% | 10µM* | -21% | -14%
26. Cc1ccc(-c2noc(C(C)NC(=O)c3ccco3)n2)cc1 (stereo not given)
→ -5% | . | i | -25% | -5% | 0%

(more compounds)
entry | SMILES | Pin1 inhibitor | GLP-1R agonist | PTHR1 ag | GLP-1R inv ag | GLP1R cytotox | miR-21 reporter
31 | CC(C)Cn1c(N)c(C(=O)COC(=O)c2ccc(Cl)cc2)c(=O)n(C)c1=O | 2% | -2% | -30% | ? | -5% | 22%
32 | Cc1csc(=O)n1CCC(=O)OCC(=O)c1c(N)n(CC(C)C)c(=O)n(C)c1=O | 2% | -6% | -36% | -19% | 12% | .
33 | COC(=O)c1cc2c(-c3ccccc3)cc3ccccn3c-2c1C(=O)OC | ? | 14% | i | 7.9µM* | ? | -1%
34 | O=C(Cn1cc(SCc2cccc(C(F)(F)F)c2)c2ccccc21)N1CCCCCC1 | -1% | . | i | 7.9µM* | 5% | 10%
35 | O=C(Cn1cc(SCc2ccc(C(F)(F)F)cc2)c2ccccc21)N1CCCC1 | ? | . | -35% | ? | -4% | 0%
36 | Cc1ccc(CSc2cn(CC(=O)N3CCCCC3)c3ccccc23)cc1 | 0% | . | -30% | 10µM* | 0% | -14%
37 | Cc1nnsc1C(=O)Oc1ccccc1Cl | -3% | . | -16% | -10% | 5% | -1%
38 | COc1ccccc1C1NC(c2ccc3c(c2)OCO3)=CC(c2ccccc2O)N1 (stereo not given) | 12% | . | . | . | . | .
39 | COc1ccc(S(=O)(=O)c2c(Nc3cccc(C)c3C)sc(C(=O)c3ccccc3)c2N)cc1 | 52% | . | -4% | ? | -11% | ?
40 | O=[N+]([O-])c1cccc(NNS(=O)(=O)c2ccccc2F)c1 | 1% | -1% | i | 6.3µM* | -6% | 12%
41 | Cc1cc(S(=O)(=O)Nc2cccc([N+](=O)[O-])c2)c(C)s1 | -3% | -2% | i | -25% | 2% | 0%
42 | O=C(N1CCN=C1SCc1cccnc1)C12CC3CC(CC(C3)C1)C2 | 1% | -10% | i | 3.5µM* | 3% | -14%
